Reference: PMC6692079 (Journal of medicinal chemistry, 2018)

Sequences of proteins named here, by UniProt entry; tags and fusion partners are left off. A change or cut given only in a name is not applied to a line headed by its entry.
UniProt P41145: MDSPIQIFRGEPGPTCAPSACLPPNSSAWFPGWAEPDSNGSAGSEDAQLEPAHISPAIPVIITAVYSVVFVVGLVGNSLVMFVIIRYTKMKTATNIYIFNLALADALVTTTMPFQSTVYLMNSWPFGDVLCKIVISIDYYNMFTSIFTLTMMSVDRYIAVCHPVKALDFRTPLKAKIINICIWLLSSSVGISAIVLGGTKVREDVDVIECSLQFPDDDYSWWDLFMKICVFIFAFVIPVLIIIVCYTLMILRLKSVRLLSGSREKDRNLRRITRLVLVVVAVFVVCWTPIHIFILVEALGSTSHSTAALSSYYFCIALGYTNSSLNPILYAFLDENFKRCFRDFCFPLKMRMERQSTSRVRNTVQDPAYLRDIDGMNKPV
UniProt P35372, whole entry: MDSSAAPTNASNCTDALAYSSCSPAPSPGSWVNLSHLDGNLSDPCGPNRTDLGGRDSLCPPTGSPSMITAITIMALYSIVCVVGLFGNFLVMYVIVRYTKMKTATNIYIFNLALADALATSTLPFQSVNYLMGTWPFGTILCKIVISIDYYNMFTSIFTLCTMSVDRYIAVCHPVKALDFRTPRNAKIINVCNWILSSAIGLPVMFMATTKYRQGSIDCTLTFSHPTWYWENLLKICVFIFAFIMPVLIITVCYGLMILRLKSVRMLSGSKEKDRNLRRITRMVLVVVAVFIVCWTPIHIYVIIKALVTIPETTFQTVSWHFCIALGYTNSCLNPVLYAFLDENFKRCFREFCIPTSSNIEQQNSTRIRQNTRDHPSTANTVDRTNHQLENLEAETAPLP

What was measured:
Assay in all cases: biochemical
human κ opioid receptor = human κ opioid receptor (Homo sapiens, UniProt P41145); format: biochemical; conditions: for δ/κ / μ/κ: ratio of Ke values; for δ/κ: selectivity for κ relative to δ; for μ/κ: selectivity for κ relative to μ
human δ opioid receptor = human δ opioid receptor (Homo sapiens, UniProt P41143)
human μ opioid receptor = human μ opioid receptor (Homo sapiens, UniProt P35372); format: biochemical

SMILES | δ/κ (human κ opioid receptor) | Kb (human δ opioid receptor) [µM] | Kb (human μ opioid receptor) [µM] | further results
CC1CCN(C[C@@H](NC(=O)[C@H]2Cc3ccc(C(N)=O)cc3CN2)C(C)C)CC1 [Compound 41, (3R)-N3-{(1S)-2-Methyl-1-[(4-methylpiperidin-1-yl)methyl]-propyl}−1,2,3,4-tetrahydroisoquinoline-3,7-dicarboxamide Dihydrochloride] | >2190 | > 3 |  | fold loss in κ opioid receptor antagonist potency relative to 12 (human κ opioid receptor): 3.7
CC1=CCCN(C[C@@H](NC(=O)[C@H]2Cc3ccc(O)cc3CN2)C(C)C)C1 [Compound 29, (3R)-7-Hydroxy-N-{(1S)-2-methyl-1-[(5-methyl-3,6-dihydropyridin-1(2H)-yl)methyl]propyl}−1,2,3,4-tetrahydroisoquinoline-3-carboxamide Dihydrochloride] | >318 | > 3 |  | 
CC(C)[C@@H](CN1CCCC1)NC(=O)[C@H]1Cc2ccc(O)cc2CN1 [Compound 4, (3R)-7-Hydroxy-N-[(1S)-2-methyl-1-(pyrrolidin-1-ylmethyl)-propyl]-1,2,3,4-tetrahydroisoquinoline-3-carboxamide Dihydrochloride] | >62 | > 3 |  | 
CC1CCN(C[C@@H](NC(=O)[C@H]2Cc3ccc(F)cc3CN2)C(C)C)CC1 [Compound 45, (3R)-7-Fluoro-N-{(1S)-2-methyl-1-[(4-methylpiperidin-1-yl)-methyl]propyl}−1,2,3,4-tetrahydroisoquinoline-3-carboxamide Dihydrochloride] | >17 | > 3 | > 3 | fold loss in κ opioid receptor antagonist potency relative to 12 (human κ opioid receptor): 492; μ/κ (human κ opioid receptor): >17
CC(C)[C@@H](CN1CCCCC1=O)NC(=O)[C@H]1Cc2ccc(O)cc2CN1 [Compound 11, (3R)-7-Hydroxy-N-{(1S)-2-methyl-1-[(2-oxopiperidin-1-yl)-methyl]propyl}−1,2,3,4-tetrahydroisoquinoline-3-carboxamide Hydrochloride] | >49 |  |  | 
Cc1ccc2c(c1)CN(C)[C@@H](C(=O)N[C@H](CN1CCC(C)CC1)C(C)C)C2 [Compound 47, (3R)-7-Hydroxy-2-methyl-N-{(1S)-2-methyl-1-[(4-methylpiperidin-1yl)methy]propyl}−1,2,3,4-tetrahydroisoquinoline-3-carboxamide Dihydrochloride] | >82 | > 3 | 0.752 ± 0.14 | Kb (human κ opioid receptor): 0.0367 ± 0.0056 µM
CC(C)[C@@H](CN1CCC(C(F)F)CC1)NC(=O)[C@H]1Cc2ccc(O)cc2CN1 [Compound 21, (3R)-N-[(1S)-1-{[4-(Difluoromethyl)piperidin-1-yl]methyl}−2-methylpropyl]-7-hydroxy-1,2,3,4-tetrahydroisoquinoline-3-carbox-amide Dihydrochloride] | >870 | > 3 |  | 
CC1CCN(C[C@@H](NC(=O)c2ccc3cc(O)ccc3c2)C(C)C)CC1 [Compound 37, 6-Hydroxy-N-{(1S)-2-methyl-1-[(4-methylpipieridine-1-yl)-methyl]propyl}naphthalene-2-carboxamide Hydrochloride] | >146 | > 3 |  | 
CC1CCN(C[C@@H](NC(=O)[C@H]2Cc3ccc(O)cc3CN2)C2CC2)CC1 [Compound 35, (3R)-N-[(1S)-1-Cyclopropyl-2-(4-methylpiperidine-1-yl)ethyl]-7-hydroxy-1,2,3,4-tetrahydroisoquinoline-3-carboxamide Dihydrochloride] | >538 | > 3 |  | fold loss in κ opioid receptor antagonist potency relative to 12 (human κ opioid receptor): 15
O=C(NCCN1CCCCC1)[C@H]1Cc2ccc(O)cc2CN1 [Compound 34, (3R)-7-Hydroxy-N-(2-piperidin-1-ylethyl)-1,2,3,4-tetrahydroisoquinoline-3-carboxamide Dihydrochloride] | >27 | > 3 | > 3 | fold less potent at the κ opioid receptor than 1 (human κ opioid receptor): 16.6; μ/κ (human κ opioid receptor): >27
CC(C)[C@@H](CN1CCOCC1)NC(=O)[C@H]1Cc2ccc(O)cc2CN1 [Compound 6, (3R)-7-Hydroxy-N-[(1S)-2-methyl-1-(morpholin-4-ylmethyl)-propyl]-1,2,3,4-tetrahydroisoquinoline-3-carboxamide Dihydrochloride] |  |  | > 3 | 
CC(C)[C@@H](CN1CC=CCC1)NC(=O)[C@H]1Cc2ccc(O)cc2CN1 [Compound 27, (3R)-N-[(1S)-1-(3,6-Dihydropyridin-1(2H)-ylmethyl)-2-methylpropyl]-7-hydroxy-1,2,3,4-tetrahydroisoquinoline-3-carboxamide Dihydrochloride] | >2804 | > 3 |  | fold more potent at the κ opioid receptor than 1 (human κ opioid receptor): 6.4
CC1CC(C)CN(C[C@@H](NC(=O)[C@H]2Cc3ccc(O)cc3CN2)C(C)C)C1 (stereo partly drawn) [Compound 17, (3R)-N-{(1S)-1-[(3,5-Dimethylpiperidin-1-yl)methyl]-2-methylpropyl}−7-hydroxy-1,2,3,4 tetrahydroisoquinoline-3-carboxamide Dihydrochloride] | >867 | > 3 |  | 
CC(C)[C@@H](CN1C2CCC1CC2)NC(=O)[C@H]1Cc2ccc(O)cc2CN1 [Compound 5, (3R)-N-[(1S)-1-(7-Azabicyclo[2.2.1]hept-7-ylmethyl)-2-methylpropyl]-7-hydroxy-1,2,3,4-tetrahydroisoquinoline-3-carboxamide Dihydrochloride] | > 1186 | > 3 |  | Kb (human κ opioid receptor): 0.00253 ± 0.0006 µM; fold more potent at the κ opioid receptor than 1 (human κ opioid receptor): 2.7
CC(C)[C@@H](CN1CCCCCC1)NC(=O)[C@H]1Cc2ccc(O)cc2CN1 [Compound 3, (3R)-N-[(1S)-1-(Azepan-1-ylmethyl)-2-methylpropyl]-7-hydroxy-1,2,3,4-tetrahydroisoquinoline-3-carboxamide Dihydrochloride] | > 177 | > 3 |  | fold less potent at the κ opioid receptor than 1 (human κ opioid receptor): 2.5
CC1CCN(C[C@@H](NC[C@H]2Cc3ccc(O)cc3CN2)C(C)C)CC1 [Compound 39, (3R)-3-[({(1S)-2-Methyl-1-[(4-methylpiperidin-1-yl)methyl]-propyl}amino)methyl]-1,2,3,4-tetrahydroisoquinolin-7-ol Trihydro-chloride] | >174 | > 3 |  | 
COc1ccc2c(c1)CN[C@@H](C(=O)N[C@H](CN1CCC(C)CC1)C(C)C)C2 [Compound 43, (3R)-7-Methoxy-N-{(1S)-2-methyl-1-[(4-methylpiperidin-1-yl)-methyl]propyl}−1,2,3,4-tetrahydroisoquinoline-3-carboxamide Dihydrochloride] | >117 | > 3 |  | fold loss in κ opioid receptor antagonist potency relative to 12 (human κ opioid receptor): 69
CC1=CCN(C[C@@H](NC(=O)[C@H]2Cc3ccc(O)cc3CN2)C(C)C)CC1 [Compound 28, (3R)-7-Hydroxy-N-{(1S)-2-methyl-1-[(4-methyl-3,6-dihydropyridin-1(2H)-yl)methyl]propyl}−1,2,3,4-tetrahydroisoquinoline-3-carboxamide Dihydrochloride] | >3410 | > 3 |  | fold loss in κ opioid receptor antagonist potency relative to 12 (human κ opioid receptor): 2.4; fold increase in μ antagonist potency relative to 12 (human μ opioid receptor): 20
CC(C)CN(CC(C)C)C[C@@H](NC(=O)[C@H]1Cc2ccc(O)cc2CN1)C(C)C [Compound 10, (3R)-N-{(1S)-1-{[Bis(2-methylpropyl)amino]methyl}−2-methyl-propyl]-7-hydroxy-1,2,3,4-tetrahydroisoquinoline-3-carboxamide Dihydrochloride] |  |  | > 3 | 
CCCN(CCC)C[C@@H](NC(=O)[C@H]1Cc2ccc(O)cc2CN1)C(C)C [Compound 9, (3R)-N-{(1S)-1-[(Dipropylamino)methyl]-2-methylpropyl}−7-hydroxy-1,2,3,4-tetrahydroisoquinoline-3-carboxamide Dihydrochloride] | > 207 | > 3 |  | 
CC1CCCN(C[C@@H](NC(=O)[C@H]2Cc3ccc(O)cc3CN2)C(C)C)C1 (mixture of isomers) [Compound 13, (3R)-7-Hydroxy-N-{(1S)-2-methyl-1-[((3RS)-3-methylpiperidin-1-yl)methyl]propyl}−1,2,3,4-tetrahydroisoquinoline-3-carboxamide Dihydrochloride] | >192 | > 3 |  | 
CC(C)[C@@H](CN1CC[C@H](C)[C@@H](C)C1)NC(=O)[C@H]1Cc2ccc(O)cc2CN1 (mixture of isomers) [Compound 16, (3R)-N-[(1S)-1-{[(3RS,4SR)-3,4-Dimethylpiperidin-1-yl]methyl}−2-methylpropyl]-7-hydroxy-1,2,3,4-tetrahydroisoquinoline-3-carboxamide Dihydrochloride] |  |  | 0.0509 ± 0.0077 | 
CC1CCN(C[C@@H](NC(=O)[C@@H]2CCc3cc(O)ccc3C2)C(C)C)CC1 [Compound 38, 6-Hydroxy-N-{(1S)-2-methyl-1-[(4-methylpipieridine-1-yl)-methyl]propyl}−1,2,3,4-tetrahydronaphthalene-2-carboxamide Hydrochloride] | >270 | > 3 | 0.153 ± 0.037 | Kb (human κ opioid receptor): 0.0111 ± 0.0029 µM

Counter-ions that a name gives are not always drawn.
